Active and inactive are the calls of the source. The calls are words filed in the database; no cut-off is given here.
What was measured:
Assay type in all cases: cell-based
[1] = molecular target: T1, Lysyl oxidase homolog 2 (Homo sapiens) (UniProt Q9Y4K0); assay: (§1) Irreversible inhibition of full length recombinant human LOXL2 expressed in CHO cells assessed as reduction in H2O2 production at 1000 times IC50 using DAP as substrate preincubated for 2 hrs followed by compound washout and second incubation for 2 hrs before substrate addition measured every 2 mins for 40 mins by Amplex red dye based fluorescence assay relative to control
T1 sequence (whole entry): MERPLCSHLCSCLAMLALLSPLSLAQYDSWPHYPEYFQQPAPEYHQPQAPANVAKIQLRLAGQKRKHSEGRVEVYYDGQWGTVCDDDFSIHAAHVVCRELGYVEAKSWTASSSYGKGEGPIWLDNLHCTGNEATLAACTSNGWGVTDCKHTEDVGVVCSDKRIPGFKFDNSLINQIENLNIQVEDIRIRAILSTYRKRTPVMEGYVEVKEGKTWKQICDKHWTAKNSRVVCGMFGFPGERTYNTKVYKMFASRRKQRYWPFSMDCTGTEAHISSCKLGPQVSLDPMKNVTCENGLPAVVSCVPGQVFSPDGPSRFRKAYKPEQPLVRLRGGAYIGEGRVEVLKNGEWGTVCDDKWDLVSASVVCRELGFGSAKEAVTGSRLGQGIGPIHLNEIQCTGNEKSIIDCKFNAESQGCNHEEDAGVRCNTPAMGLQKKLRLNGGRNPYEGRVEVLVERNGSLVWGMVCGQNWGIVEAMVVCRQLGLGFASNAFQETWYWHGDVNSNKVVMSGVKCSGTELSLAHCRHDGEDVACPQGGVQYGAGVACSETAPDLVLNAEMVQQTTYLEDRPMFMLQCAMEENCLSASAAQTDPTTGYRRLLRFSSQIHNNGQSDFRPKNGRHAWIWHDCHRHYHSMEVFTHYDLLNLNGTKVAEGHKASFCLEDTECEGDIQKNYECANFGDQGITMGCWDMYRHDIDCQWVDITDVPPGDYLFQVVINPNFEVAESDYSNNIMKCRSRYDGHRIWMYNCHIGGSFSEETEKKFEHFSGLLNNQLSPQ

[2] = molecular target: T1, Lysyl oxidase homolog 2 (Homo sapiens); assay: as §1, with “incubation up to 24” for “incubation for 2”, “assay” for “assay relative to control”
[3] = molecular target: T1, Lysyl oxidase homolog 2 (Homo sapiens); assay: Inhibition of full length recombinant human LOXL2 expressed in CHO cells assessed as reduction in H2O2 production using DAP as substrate preincubated for 4 hrs followed by substrate addition measured every 2 minutes for 50 minutes by Amplex red dye based fluorescence assay
Outline: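 Human LOXL2 comes from serum-free concentrated conditioned media of stably transfected CHO cells. Inhibitor is pretreated with enzyme for 4 h. DAP oxidative deamination is monitored as H2O2 by Amplex Red.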

[4] = molecular target: T1, Lysyl oxidase homolog 2 (Homo sapiens); assay: Inhibition of full length recombinant human LOXL2 expressed in CHO cells assessed as reduction in H2O2 production using DAP as substrate measured every 2 minutes for 50 minutes by Amplex red dye based fluorescence assay
Outline: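 Enzyme source: serum-free concentrated conditioned media from CHO cells stably expressing human LOXL2. H2O2 from oxidative deamination of 1,5-diaminopentane is detected by Amplex Red. Inhibitor is preincubated with enzyme for 15 min or 2 h; 2 h is the standard screening time. IC50 is the geometric mean x/÷ geometric standard deviation, with N-values reported.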

SMILES	inhibition [1]	inhibition [2]	inhibition [3]	inhibition [4]
NCc1ccnc(Cl)c1	35%	Active		
N#CCCN			Active	Tde

Source: ChEMBL document CHEMBL3994667, “Small Molecule Lysyl Oxidase-like 2 (LOXL2) Inhibitors: The Identification of an Inhibitor Selective for LOXL2 over LOX” (ACS Med Chem Lett, 2017)
